Experiments:
LLC-PK1 cells = assay: Cellular uptake in LLC-PK1 cells; format: in vitro ADME, porcine; conditions: mean ± S.D., n = 4
Protocol: The cellular accumulation of two somatostatin receptor-specific analogs ([^111In]In -DOTA-TATE and [^111In]In -DOTA-NOC) was compared in two renal cellular models, OK cells and LLC-PK1 cells.
Table 1 documents this finding for LLC-PK1 cells that grew for 6 h and for 3 days.

isolated rat renal cells = assay: Radiopeptide uptake in freshly isolated rat renal cells; conditions: mean ± S.D., n = 4

“[^99mTc]Tc-albumin: radiolabeled albumin, marker of proximal tubule endocytic activity, substrate of the megalin endocytic receptor [reference compound]” was tested, and the “Cellular uptake, young LLC-PK1 cells” value (LLC-PK1 cells; LLC-PK1 cells grown for 6 h) was 0.036 ± 0.006 %D/10^6 cells/30 min, the “Cellular uptake, older LLC-PK1 cells” value (LLC-PK1 cells; LLC-PK1 cells grown for 3 days) was 0.083 ± 0.015 ^★ %D/10^6 cells/30 min and the “Cellular uptake, rat renal cells” value (isolated rat renal cells) was 2.188 ± 0.411 %D/10^6 cells/30 min.
